Laboratory results as given in article PMC9798557 (2022).

Assays:
[1] = molecular target: T1, CD38 on CD38-positive cell lines (human, UniProt P28907 1-300); experiment: FACS; MOLP-8 cells
[2] = molecular target: T1, CD38 on CD38-positive cell lines; experiment: FACS; Raji cells
[3] = molecular target: T1, CD38 on CD38-positive cell lines; experiment: FACS; H929 cells
[4] = molecular target: T1, CD38 on CD38-positive cell lines; experiment: FACS; RPMI 8226 cells
[5] = molecular target: T1, CD38 on CD38-positive cell lines; experiment: FACS; Daudi cells
[6] = molecular target: T1, CD38 on CD38-positive cell lines; experiment: FACS; MM1S cells
[7] = molecular target: T1, CD38 on CD38-positive cell lines; experiment: FACS; SU-DHL-6 cells
[8] = molecular target: T1, CD38 on CD38-positive cell lines; experiment: FACS; Ramos cells
human CD38 = human CD38 (human, UniProt P28907 45-300); experiment: SPR

EC50 [1]: 0.372 µg/mL
EC50 [2]: 0.355 µg/mL
EC50 [3]: 0.6 µg/mL
EC50 [4]: 1.15 µg/mL
EC50 [5]: 0.31 µg/mL
EC50 [6]: 0.41 µg/mL
EC50 [7]: 0.436 µg/mL
EC50 [8]: 0.401 µg/mL
koff (human CD38): 0.00076 s⁻¹
B1: FTL004, humanized IgG1κ anti-CD38 mAb (antibody, V domains shown)
VH: QVQLVQSGSELKKPGASVKVSCKASGYTFTDYNVHWIRQAPGQGLEWIGYFYPRNGATHYNQKFTGRAVLSADTSVSTAYLQISSLKAEDTAVYFCARGETPGTFPYWGQGTLVTVSS
VL: DIVLTQSPASLAVSPGQRATITCRASESVDNFGITFMHWYQQKPGQPPKLLIYRASNLESGVPARFSGSGSRTDFTLTINPVEANDTANYYCQQSSKDPRTFGQGTKLEIK
